Experimental data taken from patent US20160019374A1, “METHODS FOR ESTABLISHING COMBINATIONS OF KINASE INHIBITORS FOR THE TREATMENT OF MEDICAL CONDITIONS” (SALGOMED, INC., priority 2014, published 2016).

Tested on: A549 (lung adenocarcinoma)
Experiment: Kinase inhibitor screen, selectivity = IMR-90 to A549 viability ratio (ATPlite 1 Step)
Details: secondary screen: drug at 1000 nM paired with PDK1/Akt1/Flt3 Dual Pathway Inhibitor at 125 nM; FIG. 4

Compound: N#CCCc1ccc2c(c1)-c1[nH]c3ccc([N+](=O)[O-])cc3c1CC(=O)N2 [A12, Alsterpaullone, 2-Cyanoethyl]
- selectivity S for the pair (IMR-90 to A549 viability ratio): 6.14
